Structures are written as SMILES. Only a part is listed here, and it is no random draw. Some of these compounds have results that are not shown, active ones among them. Active and inactive are the calls of the source. Calls come from the whole dose curve; as a rule, active = well fitted inhibition curve with a large enough effect; inconclusive = small, poorly fitted or top-dose-only effect; inactive = no such curve, though single readings can be large or run the other way.
% is set by controls: 0 for no effect and ±100 for the full control effect.

Chains of the proteins cited; added tags and fusions are not shown.
UniProt Q8WZA2, whole entry: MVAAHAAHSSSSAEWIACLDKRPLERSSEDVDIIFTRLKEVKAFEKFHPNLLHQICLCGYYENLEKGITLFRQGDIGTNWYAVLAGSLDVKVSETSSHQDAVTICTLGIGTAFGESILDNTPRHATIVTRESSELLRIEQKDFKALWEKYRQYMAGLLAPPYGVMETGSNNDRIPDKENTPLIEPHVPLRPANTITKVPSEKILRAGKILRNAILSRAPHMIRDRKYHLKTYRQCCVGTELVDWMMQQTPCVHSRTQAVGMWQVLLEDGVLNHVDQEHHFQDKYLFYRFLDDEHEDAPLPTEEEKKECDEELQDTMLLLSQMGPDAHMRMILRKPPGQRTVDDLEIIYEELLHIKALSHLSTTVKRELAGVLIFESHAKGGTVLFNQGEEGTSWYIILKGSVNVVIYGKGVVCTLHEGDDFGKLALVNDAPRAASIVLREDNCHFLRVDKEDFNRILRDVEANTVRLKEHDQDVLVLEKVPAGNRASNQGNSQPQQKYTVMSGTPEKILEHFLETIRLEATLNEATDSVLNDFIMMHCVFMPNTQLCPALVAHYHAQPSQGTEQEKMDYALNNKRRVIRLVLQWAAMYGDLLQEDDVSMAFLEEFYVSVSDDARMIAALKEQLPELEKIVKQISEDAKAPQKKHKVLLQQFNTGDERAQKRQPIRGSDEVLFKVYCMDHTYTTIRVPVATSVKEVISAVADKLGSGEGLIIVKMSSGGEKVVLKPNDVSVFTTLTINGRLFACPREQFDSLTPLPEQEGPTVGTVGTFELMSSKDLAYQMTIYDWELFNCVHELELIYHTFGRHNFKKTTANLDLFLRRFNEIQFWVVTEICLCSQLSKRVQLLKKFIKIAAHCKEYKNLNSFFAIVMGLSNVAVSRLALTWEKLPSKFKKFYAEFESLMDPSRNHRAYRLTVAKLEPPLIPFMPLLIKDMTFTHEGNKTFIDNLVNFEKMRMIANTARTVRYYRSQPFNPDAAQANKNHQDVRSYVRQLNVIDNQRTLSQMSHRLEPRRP

The target in this test is Rap guanine nucleotide exchange factor 4 (Homo sapiens) (UniProt Q8WZA2). Put plainly: qHTS for Antagonist of cAMP-regulated guanine nucleotide exchange factor 2 (EPAC2): primary screen. Note: nearly all actives have a fitted effect of over 45% in size. The conditions noted are these: EPAC2 GEF exchange of Rap1B-BODIPY-GDP, fluorescence; at 114 µM (top of the series) unless noted. The source says: In multi-cellular eukaryotic organisms, the effects of cAMP are transduced by two ubiquitously-expressed intracellular cAMP receptors, the classic protein kinase A/cAMP-dependent protein kinase (PKA/cAPK) and the more recently discovered exchange protein directly activated by cAMP/cAMP-regulated guanine nucleotide exchange factor (EPAC/cAMP-GEF). Both PKA and EPAC are ubiquitously expressed in all tissues, and an increase in intracellular cAMP levels will lead to the activation of both PKA and EPAC. Therefore, careful dissections of the individual role and relative contribution of EPAC and PKA within the overall cAMP signaling in various model systems are critical for further elucidating the mechanism of cAMP signaling. To date no EPAC-specific antagonists and agonist, as well as isoform-specific agonists have been reported, and developing EPAC-specific pharmacological probes to determine the physiological functions that EPAC play in the overall cAMP-mediated signaling remains a major challenge within the research field. Furthermore, identified regulators of EPAC may lead to new mechanism-based therapeutic strategies specifically targeting the EPAC / cAMP-signaling components as EPAC has been implicated to play important roles in major human pathological conditions such as diabetes, heart disease, and cancer.
This qHTS will be used to screen the Molecular Libraries Small Molecule Repository (MLSMR) as a concentration-titration series using the NCGC unique quantitative screening (qHTS) platform to find inhibitors for EPAC2. In addition, this assay will also be used as a counterscreen for the EPAC1 qHTS. This fluorescent based assay is developed and validated for EPAC2 that measures exchange using EPAC effector Rap1 complex with BODIPY-GDP, a GDP analog with a tethered fluorophores. Inhibitors are identified by monitoring the change in fluorescence signal as the exchanged free BODIPY-GDP has a reduced fluorescence compared to Rap1-bound BODIPY-GDP. Decrease in signal (inhibition) is the desired outcome for the EPAC2 antagonist while no activity in this assay is desired for the EPAC1 antagonist counterscreen.
NIH Chemical Genomics Center [NCGC]
NIH Molecular Libraries Probe Centers Network [MLPCN]
Assay Submitter (PI): Xiaodong Cheng, The University of Texas, Medical Branch
Briefly, three uL of reagents (100 nM EPAC2, 250 nM RAP1B-BODIPY-GDP, 50 uM GDP) were dispensed into a 1536-well Greiner black solid-bottom medium binding assay plate. Controls and test compounds (23 nL) were transferred to the plate via a Kalypsys pin tool equipped with a 1536-pin array. The plates were centrifuged at 1,000 rpm for 15 seconds followed by 5 minute incubation at room temperature. The assay plates were read at 5 minute intervals for 30 minutes in the ViewLux plate reader using 480nm excitation and 540nm emission filters. The results were normalized to the agonist positive control ATA and DMSO.
Take `CN(C)C1CCCC1OC(=O)C(O)(c1ccccc1)c1ccccc1` (stereo unspecified): the activity, negative = inhibition was inactive: 14%.

Turning to `CN(C)c1ccc(C(=O)NCC2(N(C)C)CCCCC2)cc1`, the activity, negative = inhibition is inactive: -7.47%.

For `Cc1ccccc1C(=O)NCC1(N2CCCCC2)CCCCC1`, the activity, negative = inhibition was inactive: 4.99%.

Take `O=C(NCC1(N2CCCCC2)CCCCC1)c1cc(F)c(F)cc1Cl`: the activity, negative = inhibition is inactive: 2.55%.

For the compound `C=CCN1CCN(CCOC(=O)C(O)(c2ccccc2)c2ccccc2)CC1`, the activity, negative = inhibition was inactive: 14.1%.

On to `O=C(NCC1(N2CCCCC2)CCCCC1)c1cccc(Br)c1`, for which the activity, negative = inhibition was inactive: 1.17%.

On to `Cc1cc(C(=O)NCC2(N3CCCCC3)CCCCC2)ccc1[N+](=O)[O-]`, for which the activity, negative = inhibition is inactive: -5.81%.

For the compound `CCN1CCCC(OC(=O)C2(O)c3ccccc3C=Cc3ccccc32)C1` (stereo unspecified), the activity, negative = inhibition is inactive: 0.843%.

In the case of `COc1ccc(C(=O)NCC2(N(C)C)CCCCC2)cc1`, the activity, negative = inhibition is inactive: 4.24%.

`O=C(NCC1(N2CCCCC2)CCCCC1)c1cc([N+](=O)[O-])ccc1Cl`: the activity, negative = inhibition was inactive: 5.55%.

As for `CN1[C@@H]2CC[C@H]1CC(OC(=O)C(O)(c1ccccc1)c1ccccc1)C2` (stereo partly specified), the activity, negative = inhibition is inactive: 9.95%.

Take `CC(C)N1C(=O)CC2(CCN(CCOC(=O)C(O)(c3ccccc3)c3ccccc3)CC2)C1=O`: the activity, negative = inhibition is inactive: 7.3%.

`COc1cc(SC)ccc1C(=O)NCC1(N(C)C)CCCCC1`: the activity, negative = inhibition is inactive: -2.31%.

As to `CCN(CC)CC(C)C(C)OC(=O)C(O)(c1ccccc1)c1ccccc1` (stereo unspecified), the activity, negative = inhibition was inactive: 6.38%.

Turning to `Cc1ccc(C(=O)NCC2(N3CCCCC3)CCCCC2)cc1`, the activity, negative = inhibition is inactive: -8.5%.

With `O=C(OC1CN2CCC1CC2)C(CO)(c1ccccc1)c1ccccc1` (stereo unspecified), the activity, negative = inhibition was inactive: -20.4% [at 57.1 µM].

Consider `COc1ccc(Br)c(C(=O)NCC2(N3CCCCC3)CCCCC2)c1`, for which the activity, negative = inhibition is inactive: -6.25%.

Turning to `C=C(C)C#CC(O)(C(=O)OC1CCN(C)CC1)c1ccccc1` (stereo unspecified), the activity, negative = inhibition was inactive: 15.9%.

`CN(C)c1cccc(C(=O)NCC2(N(C)C)CCCCC2)c1`: the activity, negative = inhibition is inactive: 16.1%.

With `O=C(OCCN1CCCC1)C(O)(c1ccccc1)c1ccccc1`, the activity, negative = inhibition was inactive: 8.12%.

`CC(C)Oc1ccc(C(=O)NCC2(N(C)C)CCCCC2)cc1`: the activity, negative = inhibition is inactive: 4.27%.

Take `CN(C)C1(CNC(=O)c2ccc(Br)cc2)CCCCC1`: the activity, negative = inhibition is inactive: 2.51%.

With `COc1cc(C(=O)NCC2(N(C)C)CCCCC2)c([N+](=O)[O-])cc1OC`, the activity, negative = inhibition is inactive: 6.8%.

In the case of `COc1ccc(Cl)cc1C(=O)NCC1(N(C)C)CCCCC1`, the activity, negative = inhibition was inactive: -3.17%.

For the compound `COc1cccc(C(=O)NCC2(N3CCCCC3)CCCCC2)c1`, the activity, negative = inhibition is inactive: 4.1%.

For the compound `O=C(NCC1(N2CCCCC2)CCCCC1)c1cccc(Cl)c1`, the activity, negative = inhibition is inactive: -5.76%.

The values above are taken from PubChem BioAssay AID720708 (National Center for Advancing Translational Sciences (NCATS), 2013).
